Yeast mating assay 2: variants of the scFv Ab-91

Values reported by Engelhart et al. 2022, doi:10.1038/s41597-022-01779-4 (FLAb copy).

The target is the same throughout: PDVDLGDISGINAS, from the HR2 region of SARS-CoV-2 spike.

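The parent was found by panning a naive human phage display library on the peptide. In library AAYL51, one, two or three CDR residues were substituted; doubles and triples were drawn at random. The assay is AlphaSeq: two haploid yeast populations carry antibody and antigen on their surface. Binding brings cells together so that they mate, and sequencing counts the barcode pairs among the diploids. The ratio of observed to expected reads was calibrated, replicate by replicate, on BCL2-family standards whose Kd was known from biolayer interferometry. The assay was run in three technical replicates.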

The variants keep the light chain, the linker and the frameworks of Ab-91 (scFv order VL, a 15-residue (Gly4Ser)3 linker, VH).
VL: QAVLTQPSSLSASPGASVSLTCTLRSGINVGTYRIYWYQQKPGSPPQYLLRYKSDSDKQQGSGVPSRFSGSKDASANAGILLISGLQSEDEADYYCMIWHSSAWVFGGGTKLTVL
VH: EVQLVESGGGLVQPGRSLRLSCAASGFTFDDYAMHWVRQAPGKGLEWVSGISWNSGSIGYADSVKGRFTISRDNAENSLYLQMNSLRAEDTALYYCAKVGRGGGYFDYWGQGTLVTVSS

Substitutions are numbered in sequence along the VH above, starting at 1 (not Kabat). Values are log10 of the apparent Kd in nM; lower means stronger binding. The mean shown is taken over the replicates in which the pair was detected. A pair that was not seen in that replicate is written "ND"; this usually means weak binding, but a binder can also be missed.

| changes | log10 Kd (nM) by replicate | mean, log10 nM | signal with controls |
|---|---|---|---|
| A33I/G56Y/G100E | ND / ND / ND | ND | 1 of 9 (5.43) |
| G59Y/V64F | ND / ND / 4.80 | 4.80 | 3 of 9 (4.56) |
| F27E/M34K/G50N | 5.64 / 4.11 / 5.18 | 4.98 | 5 of 9 (4.89) |
| Y60G | ND / ND / 4.16 | 4.16 | 0 of 9 |
| F27N/V64H/Y105P | ND / ND / ND | ND | 1 of 9 (4.19) |
| V99Q/G103I/F106C | 1.56 / 1.34 / 1.15 | 1.35 | 0 of 9 |
| T28P/M34Q/G50K | ND / ND / ND | ND | 0 of 9 |
| D30G/I51E/W53F | 2.39 / 2.56 / 2.77 | 2.57 | 2 of 9 (3.74) |
| M34E/H35D/N54A | ND / 4.29 / 2.78 | 3.54 | 1 of 9 (3.42) |
| Y32V/V64F | ND / ND / ND | ND | 1 of 9 (3.79) |
| Y32V/N54Y/S63Y | 4.20 / 5.73 / ND | 4.96 | 3 of 9 (3.59) |
| G26V/F27A/D107L | ND / ND / ND | ND | 0 of 9 |
| I58P/F106A/D107R | ND / ND / ND | ND | 0 of 9 |
| D31T/G50S/V99P | ND / ND / ND | ND | 0 of 9 |
| G26V/F27C/F29D | 2.26 / 2.12 / 2.15 | 2.18 | 5 of 9 (5.02) |
| S55Q/S63D/G102A | 1.79 / 1.59 / 1.47 | 1.62 | 0 of 9 |
| H35T/S55V/Y60H | ND / ND / ND | ND | 1 of 9 (3.91) |
| T28M/D30P/N54K | ND / 3.46 / ND | 3.46 | 0 of 9 |
| M34L/I51Q/Y108D | 4.64 / ND / ND | 4.64 | 5 of 9 (4.43) |
| S52Y/S63P/G100M | ND / ND / ND | ND | 0 of 9 |
| Y32T/A33G/I58D | 2.66 / 2.30 / 1.92 | 2.29 | 1 of 9 (4.93) |
| D30C/D62N/D107M | 5.73 / 4.86 / 3.99 | 4.86 | 5 of 9 (4.04) |
| S52D/D107K | ND / ND / ND | ND | 0 of 9 |
| R101F/G104T/Y105C | 1.08 / 1.05 / 0.63 | 0.92 | 3 of 9 (4.55) |
| G56F/V64P | ND / ND / ND | ND | 2 of 9 (4.75) |
| F27H/N54S/D107I | ND / ND / ND | ND | 0 of 9 |
| G26P/N54H/Y60R | 4.50 / 6.14 / ND | 5.32 | 1 of 9 (3.94) |
| G59I/G102W/G104E | ND / 3.20 / 3.48 | 3.34 | 1 of 9 (5.62) |
| I58K/Y60T/Y105N | ND / ND / ND | ND | 0 of 9 |
| G26D/H35V/D107G | ND / ND / ND | ND | 0 of 9 |
| F29C/W53R | 5.27 / 3.75 / 5.09 | 4.70 | 6 of 9 (4.47) |
| G59V/S63H/G104Q | ND / ND / ND | ND | 0 of 9 |
| F29M/H35N/G103D | 3.99 / 4.93 / 4.02 | 4.32 | 5 of 9 (4.61) |
| D30V/D31R/V64Y | 4.64 / 4.16 / ND | 4.40 | 3 of 9 (5.03) |
| W53K/N54A/G100T | 5.26 / ND / ND | 5.26 | 2 of 9 (4.73) |
| G26T/D31H/D107K | 4.88 / 4.39 / ND | 4.63 | 9 of 9 (5.20) |
| S55I/G102V/G103C | ND / ND / ND | ND | 0 of 9 |
| D30S/V99E/D107L | 5.04 / 6.32 / ND | 5.68 | 0 of 9 |
| Y32N/Y60Q/F106Y | 2.59 / ND / ND | 2.59 | 0 of 9 |
| G26N/I58R/F106G | ND / ND / ND | ND | 0 of 9 |
| G26M/S52G/G56T | 4.50 / 5.03 / ND | 4.77 | 5 of 9 (4.89) |
| G50C/W53S/V64K | ND / ND / ND | ND | 1 of 9 (3.15) |
| N54V/G100P/G104V | ND / ND / ND | ND | 1 of 9 (3.26) |

Excerpt, the first 6 entries:

changes	log10 Kd (nM) by replicate	mean, log10 nM	signal with controls
A33I/G56Y/G100E	ND / ND / ND	ND	1 of 9 (5.43)
G59Y/V64F	ND / ND / 4.80	4.80	3 of 9 (4.56)
F27E/M34K/G50N	5.64 / 4.11 / 5.18	4.98	5 of 9 (4.89)
Y60G	ND / ND / 4.16	4.16	0 of 9
F27N/V64H/Y105P	ND / ND / ND	ND	1 of 9 (4.19)
V99Q/G103I/F106C	1.56 / 1.34 / 1.15	1.35	0 of 9

Three control strains display no target. For library AAYL51, 21% of the pairings with them gave a signal, with a median of 4.54 and one signal in twenty below 3.26, so weak values seen in few replicates may be background. The control count says in how many pairings with the empty strains this scFv gave a signal, with their mean in brackets.